The record followed here is patent US9732093B2, “FLAP modulators” (JANSSEN PHARMACEUTICA NV, priority 2013, dated 2017).

Sequences of proteins named here, by UniProt entry; tags and fusion partners are left off.
UniProt P20292, whole entry: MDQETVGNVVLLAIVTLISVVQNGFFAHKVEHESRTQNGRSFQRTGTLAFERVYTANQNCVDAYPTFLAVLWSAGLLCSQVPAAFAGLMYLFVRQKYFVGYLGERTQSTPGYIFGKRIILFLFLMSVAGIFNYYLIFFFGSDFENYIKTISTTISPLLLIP

SMILES strings stand for the structures.

Assay [1] concerns the target human FLAP (Homo sapiens (Human), UniProt P20292). Description: FLAP binding assay (HTRF format). The settings on record: read-out: FLAP Binding wild type HTRF Ki, human FLAP wild type membranes, Table 6 (additional runs).
Assay [2] has as its system leukotriene pathway in human whole blood. Description: Human whole blood assay (LTB4 levels after A23187 stimulation). Particulars: read-out: Human Whole Blood LTB4 IC50 1:1, human whole blood diluted 1:1 in RPMI, Table 6 (additional runs).

As a reminder, the Ki is the equilibrium dissociation constant of an inhibitor or competing ligand from its target. As a reminder, the IC50 is the point on the concentration scale where inhibition reaches its midpoint. For the compound `Nc1ccnc(Oc2c(C3CCCCC3)ccc(-c3cnc(N)nc3)c2F)n1`, the inhibition constant Ki in assay [1] amounted to 26.9 nM. In assay [2], the IC50 is 91.5 nM.
